Test results published in patent publication EP4834881A1, “QUINOLONE COMPOUNDS AND USE THEREOF” (dated 2026).
Marks after values point to notes of the source that are not given here.

The chains behind the UniProt entries cited, without tags or fusion partners.
UniProt Q96LB1, whole entry: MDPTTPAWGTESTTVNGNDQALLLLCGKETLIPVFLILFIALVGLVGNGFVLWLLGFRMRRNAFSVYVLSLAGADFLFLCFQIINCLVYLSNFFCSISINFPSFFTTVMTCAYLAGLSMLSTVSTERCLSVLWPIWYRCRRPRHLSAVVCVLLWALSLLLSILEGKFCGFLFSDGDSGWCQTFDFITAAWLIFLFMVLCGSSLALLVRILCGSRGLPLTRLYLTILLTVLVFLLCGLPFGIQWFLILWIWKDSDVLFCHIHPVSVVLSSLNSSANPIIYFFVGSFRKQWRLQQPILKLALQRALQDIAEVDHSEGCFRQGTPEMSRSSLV

How the values were obtained:
[1] = system: BALB/c mice; experiment: Asthma model: IgE assay (ELISA) in peripheral blood, alveolar lavage fluid and lung tissue; conditions: 5mg/kg PO, 7 days, mean ± SEM
Experimental: (§1) Experimental animals: BALB/c mice, from Guangdong Vital River Laboratory Animal Technology Co., Ltd.
(§2) Modeling was initiaed on the day of grouping, which was designated as M1. Except for the normal group, mice in all modeling groups were intraperitoneally injected with a sensitization solution of (500 µg OVA (Ovalbumin) (Supplier: Shanghai Macklin, Lot No.: C16255388) mixed with 5 mg aluminum hydroxide/mL) per mouse, while the normal control group was given an equal volume of sterile PBS solution. The injection cycle was M1, M7, and M14. Starting from M21, challenge was carried out by aerosolization once daily for 7 consecutive days. The challenge solution was a 20 mg/mL OVA (Ovalbumin) solution, and each aerosolization challenge lasted for 30 min. The normal control group was not subjected to aerosolization.
(§3) Administration was initiated on day M21, which was designated as D1, and was performed once daily for 7 consecutive days. The normal control group and the model control group were administered with vehicle alone under the same conditions. The administration regimen for the mouse asthma model was as follows:
Prior to necropsy, blood was collected from the eyeball. The collected mouse blood was then centrifuged at 1800 r/min at 4 °C for 15 min, and the supernatant serum was aliquoted and stored at -80 °C for testing. At the same time, alveolar lavage fluid and lung tissues were collected. The IgE levels in the above three samples was detected using an ELISA method (Supplier: Shanghai Enzyme-linked Biotechnology Co., Ltd., Lot No.: ml1037602). […] The results of the IgE levels in peripheral blood, lavage fluid, and lung tissue of each group are shown in Table 9, and the data are presented as mean ± standard error of the mean (SEM).

[2] = system: BALB/c mice; experiment: Asthma model: OVA sensitization and aerosol challenge, bronchoalveolar lavage fluid (BALF) cell differential count; conditions: 5mg/kg PO, 7 days, mean ± SEM
Experimental: as §1, §2, §3
The lungs were gently lavaged twice with normal saline to collect BALF. The recovered BALF was stored at 4 °C, and the cell differential count was detected using an automated hematology analyzer (Manufacturer: SYSMEX, Model: XN-1000). During the experiment, the asthma model mice developed typical symptoms, including shortness of breath, and ear and nose scratching, etc. […] The results of the bronchoalveolar lavage fluid cell differential count in each group are shown in Table 8, and the data are presented as mean ± standard error of the mean (SEM).

[3] = molecular target: human MRGPRX2 (Homo sapiens, UniProt Q96LB1); experiment: In vitro target binding assay: BRET between MRGPRX2-Nluc and Venus-β-arrestin1 in transfected HEK-293T cells, antagonist mode against agonist R-ZINC-3573 (EC80); conditions: antagonism of agonist R-ZINC-3573 at EC80, net BRET
Excerpt: Bioluminescence Resonance Energy Transfer (BRET) is an important biophysical technique for monitoring molecular interactions, and has been widely used to study protein-protein interactions in living cells. This technique requires the relevant proteins to be linked to an energy donor (such as luciferase) and an acceptor (such as a fluorescent protein). When a relevant drug molecule interacts with the protein, the protein structure alters, causing a change in the distance between the energy donor and the energy acceptor. The luminescence energy induced by the chemical reaction is transferred to the corresponding acceptor, resulting in increased acceptor emission, and generating a BRET signal. In this work, a DNA-synthesized target human MRGPRX2 and a donor luciferase Nluc (NanoLuc®Promega) (Supplier: Beijing Tsingke, Lot No.: SZ0171228-1), as well as an acceptor fluorescent protein Venus and the relevant test protein, namely human β-arrestin1 (ARRB1) (Supplier: Guangzhou Dahong Biotechnology, Lot No. HY22694-4396), were utilized, and were inserted into the eukaryotic expression vector plasmid pcDNA3.1(+) (Supplier: Qiyun Bio, Lot No.: QY2310) as fusion genes via a Linker sequence (GGSG). The cell line selected for the experiment was human embryonic kidney cells HEK-293T. The human embryonic kidney cell line HEK-293T was routinely cultured in 10 cm cell culture dishes using complete culture medium consisting of high-glucose DMEM medium supplemented with 10% (V/V) fetal bovine serum. Cells were seeded at 2×10^6 cells/10 cm dish on the first day of culture, and passaged every 72 h with the same number of cells. One day prior to transfection, cells were resuspended, counted, and seeded at a density of 2×10^6 cells/6 cm dish or 4×10^6 cells/10 cm dish. Transfection was carried out 16-24 h after seeding. Plasmids constructed with the fusion protein gene were transfected into the expression cell line, and the transfected cells were cultured under appropriate conditions for a period of time to allow sufficient expression of the fusion proteins. Transfection was performed by encapsulating plasmid DNA with PEI reagent, and the encapsulation process should to be carried out in Opti-MEM medium. The ratio of plasmid, PEI (Supplier: Yeasen Biotechnology, Lot No.: WP5430010), and Opti-MEM (Supplier: Gibco, Lot No.: 2883564) was 1:4:14 (W: W: V). The encapsulated plasmid was added to an appropriate amount of complete culture medium, amd gently mixed, which was then used to replace the existing culture medium of the previously plated cells. Cells were harvested 24 h after transfection. Subsequently, cells were resuspended using HBSS (Source: Biosharp, Lot No.: 24179687) and counted with a cell counter. The cells were diluted to a density of (3~5) ×10^5 cells/mL, and then seeded into a flat-bottom white 96-well microplate at 100 µ L/well, resulting in (3~5) ×10^4 cells per well. In each well, 10 µ L of antagonist compounds diluted with HBSS a different concentrations were added firstly, then the agonist compound at a specific concentration (EC80) was added. After reacting for 2 min, the substrate Furimazine (Supplier: TargetMol, Lot No.: 362434) at a final concentration of 10 µM was added. After reacting for another 2 min, the 96-well plate was placed in a PHERAstar FSX microplate reader (Supplier: BMG Labtech) to simultaneously measure the readings at wavelengths of 440 nm and 530 nm. Based on the fluorescence readings at 440 nm and 530 nm, the Ratio and net BRET were calculated. Ratio = Em530 nm / Em440 nm, and net BRET = Ratio co-transfection - Ratio single-transfection. The calculated net BRET values were inputted into GraphPad Prism 9, and curve fitting via nonlinear regression (four-parameter equation) and IC50 calculation were performed.

`COc1c(-c2ccc(S(=O)(=O)NC3CCOCC3)cc2)c(F)cc2c(=O)c(C(=O)O)cn(C3CC3)c12` was tested, and the “Alveolar Lavage Fluid IgE Concentration” value ([1]; alveolar lavage fluid) was 12.8 ± 0.9 ng/mL, the “Lung Tissue IgE Concentration” value ([1]; lung tissue) was 39.8 ± 2.4 ng/mL and the “Peripheral Blood IgE Concentration” value ([1]; serum) was 15.6 ± 5.8 ng/mL. For the same compound, the “Eosinophil Count” value [2] was 2.0 ±0.7** 10^9/L, the “Leukocyte Count WBC” value [2] was 2.6 ±0.7** 10^9/L and the “Lymphocyte Count” value [2] was 0.2±0.06* 10^9/L. The “Monocyte Count” value [2] was 0.1±0.04* 10^9/L, the “Neutrophil Count” value [2] was 0.2±0.05* 10^9/L and the IC50 [3] was 1 to 10 µM.
